Patent US6496728B2, “Methods for extracting substances using alternating current” (University of Utah Research Foundation, priority 2000, dated 2002)

What was measured:
[1] = Constant current DC iontophoretic transport across human epidermal membrane in side-by-side diffusion cell
Experimental: Iontophoretic transport studies were carried out in a side-by-side two-chamber diffusion cell (diffusional surface area of around 0.8 cm^2 and chamber volume of 2 mL) with HEM at 37° C. The apparent permeability coefficients (P) in each experiment were calculated by: [formula]
where A is the membrane surface area, t is time, Q is the amount of permeant transported into the receiver chamber, and CD is the concentration of permeant in the donor chamber. The pH of the solutions in the donor and receiver chambers was checked after each iontophoresis run to detect possible water hydrolysis.
Constant current DC transport experiments were carried out at the current level of 0.13 mA/cm^2 using a constant current iontophoretic device (phoresor II Auto, Model No. PM 850, Iomed, Inc., Salt Lake City, Utah) with Ag—AgCl electrodes. […] HEM resistance during iontophoresis was measured by monitoring the electrical potential drop across the membrane using two flexible Luggin capillaries which were inserted into the donor and receiver compartments of the diffusion cells. Each of the Luggin capillaries contained a calomel electrode connected to a voltmeter. The HEM resistance could be determined during iontophoresis according the output current level and the voltmeter readings.
A trace amount of [^14C] […] One ml of sample was taken from the receiver chamber approximately every 30 minutes and replaced with the fresh PBS. A 10 μl sample was taken from the donor chamber every hour. Samples were mixed with 10 ml scintillation cocktail (Ultima Gold™, Packard Instrument Co., Meriden, Conn.) and assayed by a dual-labeled liquid scintillation counter (Parkard TriCarb™ Model 1900 TR Liquid Scintillation Analyzer).

[2] = AC without DC offset (AC + passive) transport across human epidermal membrane in side-by-side diffusion cell; type: in vitro ADME; details: for Slope of normalized TEA^+ flux versus time (linear regression): AC 50 Hz, no DC offset, data points between 100 and 330 minutes
Excerpt: The same protocol was used to reduce the skin electrical resistance to 2 kΩ as described in the AC+DC Offset method. […] Permeants and sampling protocol were the same as in the Constant Current and AC+DC Offset sessions as described above.

[3] = AC + DC offset iontophoretic transport across human epidermal membrane in side-by-side diffusion cell; type: in vitro ADME
Excerpt: The output AC voltage was manually adjusted between 3 to 8 volts to keep the skin resistance at 2 kΩ (±10%) and the DC offset value was kept constant at 0.25 V during the entire period of the experiment. The same permeants and sampling protocol were used as described in the Constant Current Session.

For `CC[N+](CC)(CC)CC.[Br-]` [TEA^+, tetraethylammonium bromide], the “Rate of change of normalized TEA^+ flux, fold higher with constant current DC than with AC without DC Offset” value ([1]; constant current DC versus AC without DC Offset) was 20 fold, the “Rate of change of normalized TEA^+ flux, fold higher with constant current DC than with AC+DC Offset” value ([1]; constant current DC versus AC+DC Offset) was 3 fold and the Papp ([1]; human) was 4.7 ×10⁻⁶ cm/s. The Papp at 180 min ([1]; human) was 4.7 ×10⁻⁶ cm/s, the “Slope of normalized TEA^+ flux versus time (linear regression)” value ([2]; target skin resistance 2 kΩ) was 3 × 10^−10 cm sec^−1 min^−1 and the “Slope of normalized TEA^+ flux versus time (linear regression)” value ([2]; target skin resistance 4 kΩ) was −3 × 10^−10 cm sec^−1 min^−1. For the same compound, the Papp at 180 min ([2]; human, AC (50 Hz) w/o DC offset, target skin resistance 2 kΩ, one time point (180 min), 4 samples, read-out: TEA^+ permeability coefficient, mean) was 0.99 ×10⁻⁶ cm/s, the “Rate of change of normalized TEA^+ flux, fold higher with AC+DC Offset than with AC without DC Offset” value ([3]; AC+DC Offset versus AC without DC Offset) was 7 fold and the Papp ([3]; human, AC (50 Hz) with 0.25 V DC offset, target skin resistance 2 kΩ, all data points from 100 to 330 min, 42 points (7 samples), read-out: TEA^+ permeability coefficient, mean) was 6 ×10⁻⁶ cm/s. For the same compound, the Papp at 180 min ([3]; human, AC (50 Hz) with 0.25 V DC offset, target skin resistance 2 kΩ, one time point (180 min), 7 samples, read-out: TEA^+ permeability coefficient, mean) was 6.2 ×10⁻⁶ cm/s.
